{
  "source": "patent US11004539B2",
  "about": "“Predicting metabolic side effects of transported drugs” (The Regents of the University of California, priority 2016, dated 2021)",
  "target": "T1, OAT3 (Mus musculus, UniProt O88909)",
  "T1 sequence (O88909 1-537)": "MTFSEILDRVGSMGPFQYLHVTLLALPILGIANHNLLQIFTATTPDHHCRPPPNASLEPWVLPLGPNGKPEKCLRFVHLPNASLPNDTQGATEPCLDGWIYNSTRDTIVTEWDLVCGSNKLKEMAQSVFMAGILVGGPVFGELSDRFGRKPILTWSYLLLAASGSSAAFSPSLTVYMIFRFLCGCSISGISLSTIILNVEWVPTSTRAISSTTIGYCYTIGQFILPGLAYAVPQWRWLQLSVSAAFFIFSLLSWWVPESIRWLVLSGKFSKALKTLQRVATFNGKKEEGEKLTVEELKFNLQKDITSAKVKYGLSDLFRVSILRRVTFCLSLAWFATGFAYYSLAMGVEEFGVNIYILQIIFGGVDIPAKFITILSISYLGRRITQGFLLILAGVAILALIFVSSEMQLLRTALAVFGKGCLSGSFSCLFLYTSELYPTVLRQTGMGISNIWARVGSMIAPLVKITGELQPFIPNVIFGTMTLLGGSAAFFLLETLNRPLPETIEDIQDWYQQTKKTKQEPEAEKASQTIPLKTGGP",
  "assay": "Plasma metabolomics profiling of Oat3KO versus wild-type mice",
  "details": "Oat3KO vs wild type mice",
  "data": [
    {"substance": "gentisate", "values": [
      {"measurement": "change in plasma of the Oat3KO", "result": "significantly increased"}
    ]}
  ]
}
